Entries after “also recorded” stand apart in the source; their conditions may differ.
System: hPSC-derived pituitary-lineage cells
Experiment: Dorsal-ventral patterning of pituitary cells with FGF8 and BMP2
Assay type: cell-based, human
Method: For standard (unless mentioned otherwise in the text) pituitary maturation, medium on day 30 was changed to “E6 only” for additional 30 days. For patterning experiments (indicated in the text) E6 medium was supplemented with either high concentrations of FGF8 (100 ng/ml, dorsalize), high concentrations of BMP2 (20 ng/ml, ventralize) or intermediate concentrations of both (FGF8 50 ng/ml, BMP2 10 ng/ml).
Total RNA was extracted from at least 3 independent experiments using the TRIzol (Fisher Scientific) reagent in combination with Phase-lock tubes (5Prime) according to the manufactures protocol. 1 μg of total RNA was reverse transcribed into cDNA using iScript (BioRad). For quantitative RT PCR the present example used the SSoFast EvaGreen Mix (BioRad) in combination with QuantiTect primer assays (Qiagen) on a BioRad CFX96 Thermal Cycler. All reactions were run according to the manufacturer's protocol. Results are calculated using the ΔΔCt method (Livak and Schmittgen, 2001).
For single cell PCR analysis cells were detached using Accutase. After filtering through a 40 μm cell strainer DAPI negative cells were sorted on a BDFACS Aria III machine, essentially cleaning up the cell preparation of debris and dead cells. Sorted cell suspension was adjusted to a concentration of 400 000 cells/ml. Single cells were captured using the Fluidigm C1 system according to the manufactures manual. Capture rate of for each C1 chip was confirmed microscopically using a standard tissue culture bright filed microscope. Capture rates were as follows: day 30: 91% (87/96) day 60: 94% (90/96) day 60 FGF8: 93% (89/96) day 60 FGF8/BMP2: 89% (85/96) day 60 BMP2: 93% (89/96). Cells were lysed, RNA was extracted and transcribed into cDNA using the C1 in combination with wet-lab tested Fluidigm DELTAgene assays (FIG. 27) following the manufactures protocol. Wet-lab tested DELTAgene assays were purchased directly from Fluidigm. The resulting cDNA was diluted 1:5 and subjected to Single cell PCR amplification using the Fluidigm BioMark system in combination with EvaGreen chemistry according to the manufactures manual (“Fast Gene Expression Analysis Using EvaGreen on the BioMark or BioMark HD System”). PCR was run using a Fluidigm 96.96 Dynamic Array. Each primer pair was run in technical duplicates on the chip. Only single cells with consistent amplification results between the technical primer replicates were considered to minimize false positive calls on the expense of increasing the number of false negatives. Overall discrepancy rate was low (>3% per primer pair). Expression data was analyzed using the Fluidigm Real-Time PCR analysis software in combination with the Fluidigm SINGuLAR Analysis Toolset for R (Version 3.0.2 (2013-09-25) “Frisbee Sailing”).
After washing the cells once with PBS, cells were fixed with 4% (v/v) paraformaldehyde for 20 min, washed twice with PBS, permeabilized using 0.1% (v/v) Triton X-100 in PBS, Cells were blocked with 10% (v/v) FCS in PBS for 1-5 h at room temperature. Cells were incubated with primary antibodies diluted in 2% FCS (v/v) in PBS at 4° C. overnight. A list of the primary antibodies used in this study is provided as FIG. 28. […] After an additional 2 washing steps, fluorescence images of the cells were taken using an Olympus IX71 inverted microscope equipped with a Hamamatsu ORCA CCD camera.

[1] = single cell qRT-PCR, day 60, high concentrations

B1: BMP2: activator of BMP signaling, ventralizing agent (protein, UniProt P12643 283-396, looked up)
Bone morphogenetic protein 2: QAKHKQRKRLKSSCKRHPLYVDFSDVGWNDWIVAPPGYHAFYCHGECPFPLADHLNSTNHAIVQTLVNSVNSKIPKACCVPTELSAISMLYLDENEKVVLKNYQDMVVEGCGCR
ventral cell type gene expression (FSHB, LHB) (bulk qRT-PCR, day 60, FIG. 20A): significantly upregulated; also recorded: induced a more ventral cell identity | hormone expressing cells by immunofluorescence (day 60, FIG. 20D/20E): FSH was the most abundant cell type | cells expressing POMC (day 60, single cell qRT-PCR, high concentrations (FGF8 100 ng/ml, BMP2 20 ng/ml)): 40% | number of ACTH+ dorsal cell types [1]: decreased | number of ventral cell types expressing FSHB and LHB [1]: increased

From patent US20200199530A1, “METHODS OF DIFFERENTIATING STEM CELL-DERIVED ECTODERMAL LINEAGE PRECURSORS” (MEMORIAL SLOAN-KETTERING CANCER CENTER, priority 2017, published 2020)
